Legend:
[1] = system: Alpha-1A adrenergic receptor (Oryctolagus cuniculus); assay: Antagonist inhibition of noradrenaline-stimulated contractions of rabbit bladderneck (RBN) for Alpha-1A adrenergic receptor
[2] = target: Alpha adrenergic receptor (1a and 1d) (Homo sapiens) (UniProt P35348+P25100); assay: Ratio of binding affinities for human cloned alpha1D- adrenoceptor to that of human cloned alpha1A- adrenoceptor (alpha-1D/alpha-1A); type: protein assay
How it was run: (§1)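 Ratio of α1B (or α1D) to α1A binding affinity, calculated from pKi values for [3H]-prazosin displacement at cloned human subtypes expressed in CHO-K1 membranes or whole cells.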

By UniProt entry, the sequences of proteins in these tests, tags left out.
UniProt P25100, whole entry, looked up: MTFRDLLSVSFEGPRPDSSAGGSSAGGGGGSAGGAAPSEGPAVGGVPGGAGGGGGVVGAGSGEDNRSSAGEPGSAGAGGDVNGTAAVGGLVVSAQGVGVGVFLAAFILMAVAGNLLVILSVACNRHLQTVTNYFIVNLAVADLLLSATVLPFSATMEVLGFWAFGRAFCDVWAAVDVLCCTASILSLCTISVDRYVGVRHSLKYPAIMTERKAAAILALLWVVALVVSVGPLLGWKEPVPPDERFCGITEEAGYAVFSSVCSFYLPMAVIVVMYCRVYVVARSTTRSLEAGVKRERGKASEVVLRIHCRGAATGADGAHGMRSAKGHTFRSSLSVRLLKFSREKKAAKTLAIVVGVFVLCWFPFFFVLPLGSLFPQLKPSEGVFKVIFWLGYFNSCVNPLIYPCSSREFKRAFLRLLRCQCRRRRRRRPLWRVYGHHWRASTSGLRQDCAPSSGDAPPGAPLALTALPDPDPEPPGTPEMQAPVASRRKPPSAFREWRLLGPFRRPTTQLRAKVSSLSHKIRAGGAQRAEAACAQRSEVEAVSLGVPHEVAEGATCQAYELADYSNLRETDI
UniProt P23944, whole entry: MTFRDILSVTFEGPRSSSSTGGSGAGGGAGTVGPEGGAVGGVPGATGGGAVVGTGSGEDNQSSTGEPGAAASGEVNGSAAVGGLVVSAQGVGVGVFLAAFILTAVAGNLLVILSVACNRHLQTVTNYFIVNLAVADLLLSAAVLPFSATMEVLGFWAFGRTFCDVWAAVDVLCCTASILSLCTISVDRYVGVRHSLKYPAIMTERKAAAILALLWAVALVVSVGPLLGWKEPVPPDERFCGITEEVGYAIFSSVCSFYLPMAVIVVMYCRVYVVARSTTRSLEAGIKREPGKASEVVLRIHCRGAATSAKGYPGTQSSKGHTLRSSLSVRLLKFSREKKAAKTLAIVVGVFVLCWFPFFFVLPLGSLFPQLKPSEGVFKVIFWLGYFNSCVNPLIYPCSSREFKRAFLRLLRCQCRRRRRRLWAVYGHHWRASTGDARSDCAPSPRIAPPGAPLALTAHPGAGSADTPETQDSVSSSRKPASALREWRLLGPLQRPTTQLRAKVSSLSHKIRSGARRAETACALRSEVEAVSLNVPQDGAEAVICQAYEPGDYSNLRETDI

[3] = target: Alpha-1D adrenergic receptor (Rattus norvegicus) (UniProt P23944); assay: Antagonist inhibition noradrenaline-stimulated contractions of rat aortic strings for Alpha-1D adrenergic receptor; type: functional
[4] = system: Alpha-1D/alpha-1A adrenergic receptors (rat/rabbit); assay: Ratio of antagonistic activities against alpha-1D vs alpha-1A determined in rat aorta and rabbit bladder neck respectively
[5] = target: Adrenergic receptors; alpha-1 A & B (Homo sapiens) (UniProt P35348+P35368); assay: Ratio of binding affinities for human cloned alpha1B- adrenoceptor to that of human cloned alpha1A- adrenoceptor (alpha-1B/alpha-1A); type: protein assay
How it was run: as §1

Canis familiaris = species on record: Canis familiaris; assay: In vitro relative rate of metabolism was determined in dog liver microsomes; type: ADME, Canis lupus familiaris
[6] = target: T1, Alpha-1A adrenergic receptor (Homo sapiens, UniProt P35348); assay: Inhibition of [3H]prazosin binding to CHO-K1 whole cells expressing human cloned Alpha-1A adrenergic receptor; type: cell-based
T1 sequence (P35348 whole entry): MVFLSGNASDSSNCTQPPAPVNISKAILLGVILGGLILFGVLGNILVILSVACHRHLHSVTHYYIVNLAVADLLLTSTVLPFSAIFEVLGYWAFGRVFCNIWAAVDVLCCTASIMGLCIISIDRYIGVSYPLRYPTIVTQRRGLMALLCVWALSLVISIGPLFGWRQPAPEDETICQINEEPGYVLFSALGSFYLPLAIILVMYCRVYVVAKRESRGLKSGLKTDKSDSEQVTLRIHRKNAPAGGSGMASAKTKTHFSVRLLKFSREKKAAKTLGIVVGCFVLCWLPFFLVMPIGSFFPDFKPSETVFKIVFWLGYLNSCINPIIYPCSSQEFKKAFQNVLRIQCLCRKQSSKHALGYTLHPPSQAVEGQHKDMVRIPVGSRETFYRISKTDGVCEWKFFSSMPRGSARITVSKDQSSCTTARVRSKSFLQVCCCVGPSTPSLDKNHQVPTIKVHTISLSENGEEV

Row | SMILES | pA2/pKB [1] | Ratio [2] | pA2/pKB [3] | Ratio [4] | Ratio [5] | Relative rate metabolism (Canis familiaris) | Ki [6]
1 | Cc1cc(=O)n(CCCN2CCN(c3ccc(F)cc3OCC(F)(F)F)CC2)c(=O)[nH]1 | 8.7 | 50 | 7.3 | 50 | 158 | – | –
2 | Cc1c[nH]c(=O)n(CCCN2CCN(c3ccc(F)cc3OCC(F)(F)F)CC2)c1=O | 8.9 | 50 | 6.8 | 126 | 63 | 0.6 | 1.26 nM
3 | Cc1c[nH]c(=O)n(CCN2CCN(c3ccc(F)cc3OCC(F)(F)F)CC2)c1=O | 8.5 | 5 | 8 | 2.9 | 32 | – | –
4 | Cc1c[nH]c(=O)n(CC(C)(C)CN2CCN(c3ccccc3OCC(F)(F)F)CC2)c1=O | 7.8 | 32 | 6.3 | 32 | 100 | – | –
5 | COc1c[nH]c(=O)n(CCCN2CCN(c3ccc(F)cc3OCC(F)(F)F)CC2)c1=O | 8.8 | 20 | 6.8 | 100 | 100 | 0.2 | 1.58 nM
6 | CN(C)c1c[nH]c(=O)n(CCCN2CCN(c3ccc(F)cc3OCC(F)(F)F)CC2)c1=O | 8.2 | 16 | 6.4 | 63 | 32 | 0.4 | 6.31 nM
7 | Cc1cn(CCCN2CCN(c3ccccc3OCC(F)(F)F)CC2)c(=O)[nH]c1=O | 8.5 | 10 | 7.1 | 25 | 50 | – | –
8 | Cc1n[nH]c(=O)n(CCCN2CCN(c3ccccc3OCC(F)(F)F)CC2)c1=O | 8.7 | 25 | 7.7 | 10 | 126 | – | –
